Results on six molecules are retold here after patent publication US7807162B2, “Single domain VHH antibodies against von Willebrand factor” (Ablynx N.V., priority 2005, dated 2010).

Numbering of substitutions follows the chain as printed.

For series [1], the target named is T1, vWF (Homo sapiens, UniProt P04275). Briefly: Stability at elevated temperatures: binding in ELISA to vWF after heating. As to conditions: 1 hour at different temperatures. In kind it is physicochemical. The method, then:
A stock solution of nanobodies at a concentration of 200 μg/ml in PBS was prepared and divided into several tubes. Each tube containing nanobody was incubated at different temperatures for 1 hour, then cooled at room temperature for 2 hours and put at 4° C. overnight. The next day, the samples were centrifuged for 30 minutes at 13000 rpm, and the supernatant was tested for OD280 nm. The concentration of supernatants were measured spectrophotometrically and expressed as a percentage of the concentration at room temperature.
The supernatants were also tested in ELISA for binding to vWF as described above in Example 3.
The supernatants were tested in ELISA for binding to vWF as described above in Example 3. The supernatants were applied starting at a 1/100 dilution and 1/5 dilutions were made in PBS. Results are shown in FIG. 12 (12B6), FIG. 13 (12A2) and FIG. 14 (12A5).

Series [2] can be described thus: Stability at elevated temperatures: concentration of supernatant (OD280) after heating. Format: physicochemical.
Series [3] addresses T1, vWF. Briefly: Cross-reactivity ELISA with vWF from plasma of other species (human). As to conditions: nanobody 10 μg/ml. Format: binding. Also on record: plasma (dog, pig, human, baboon and cynomologues monkey) was applied; from tissue; host or cells: human plasma. As to the method: (§1) A microtiterplate was coated with mouse anti-myc at 1/1000 overnight at 4° C. The plate was washed with PBS-Tween and blocked for two hours at room temperature with PBS-1% casein. After washing, the nanobodies were applied at a concentration of 10 μg/ml in PBS. After a one hour incubation period, the plates were washed and plasma (dog, pig, human, baboon and cynomologues monkey) was applied starting at a five-fold dilution and making further two-fold dilutions in PBS. The plates were incubated for 1 hour at room temperature. The plates were washed and polyclonal anti-vWF-HRP (DAKO) was applied at a 2000-fold dilution for one hour at room temperature. The plates were washed and ABTS/H2O2 substrate was applied. The OD 405 nm was measured.
(In general: An ELISA detects its analyte on a solid surface through an enzyme-linked reagent.)

A further series relates to cynomologues monkey vWF. As to the kind of experiment: Cross-reactivity ELISA with vWF from plasma of other species (cynomologues monkey). Format: binding. Particulars: nanobody 10 μg/ml. The method, then: as §1
In the next series the test system is baboon vWF. Briefly: Cross-reactivity ELISA with vWF from plasma of other species (baboon). Format: binding. As to conditions: nanobody 10 μg/ml. The method, then:
as §1

In series [4] the target is T1, vWF. As to the kind of experiment: Analysis in BIACORE for binding to vWF. As to conditions: for K-on and K-off rates compared among homologue nanobodies: nanobody 5 μg/ml. The method, then:
vWF was covalently bound to the sensor chip surface via amine coupling. The CM5 surface of the chip was activated by the injection of EDC/NHS (1:1 mix of 0.4 M 1-ethyl-3-(3-dimethylaminopropyl)-carbodiimide and 0.1 M N-hydroxysuccinimide in water) for 7 minutes. Upon activation vWF was injected until an increase of 6000 response units was detected. The excess of reactive groups was deactivated with 1 M Ethanolamine-HCl (pH 8.5) for 7 minutes. The flowrate was kept constant during the immobilization procedure at 5 ul/min. The eluent buffer was 0.01 M HEPES (pH 7,4) with 0.15 M NaCl, 3 mM EDTA and 0.005% Surfactant P20.
The nanobodies 12B6 and 12A5 and their homologue proteins were analysed in BIACORE on vWF at a concentration of the nanobody of 5 μg/ml as shown in FIGS. 4 and 5.
From the set of curves that were generated for each nanobody, only those curves where equilibrium was reached, were used to derive the KD value via steady state affinity.
A general note: In SPR one partner is held on a chip, and binding of the other changes the refractive index at the surface.

A further series has as its target T2, pig vWF (Sus scrofa, UniProt Q28833).
T2 construct: plasma (dog, pig, human, baboon and cynomologues monkey) was applied; from tissue; host or cells: pig plasma
As to the kind of experiment: Cross-reactivity ELISA with vWF from plasma of other species (pig). As to conditions: nanobody 10 μg/ml. Format: binding. The method, then:
as §1

[5] abbreviates: estimated, nanobody 5 μg/ml on immobilised vWF.
[6] abbreviates: real KD determination, range of nanobody concentrations, Table 14.

A word on the Kd: it is the free concentration of one partner at which half of the binding sites on the other are occupied at equilibrium, for simple one-to-one binding.

B1: 12A5: anti-vWF nanobody, SEQ ID NO: 60 (protein)
VHH: AVQLVESGGGLVQPGGSLRLSCLASGRIFSIGAMGMYRQAPGKQRELVATITSGGSTNYADPVKGRFTISRDGPKNTVYLQMNSLKPEDTAVYYCYANLKQGSYGYRFNDYWGQGTQVTVSS
On to B1, for which the “stability at elevated temperatures (binding to vWF in ELISA after heating)” value in the series with vWF [1] is given as “very stable at elevated temperatures”. The “Concentration after heating at increasing temperatures” value in series [2] (37° C., Table 16) was 108; in series [2] (37° C., Table 22), 108; in series [2] (37° C., Table 36), 108; in series [2] (50° C., Table 16) it was 107; in series [2] (50° C., Table 22), 107; in series [2] (50° C., Table 36) it was 107. The “Concentration after heating at increasing temperatures” value is on record as 98 in series [2] (60° C., Table 16); 98 in series [2] (60° C., Table 22); 98 in series [2] (60° C., Table 36); 83 in series [2] (70° C., Table 16); 83 in series [2] (70° C., Table 22); 83 in series [2] (70° C., Table 36). For the same molecule, the “Concentration after heating at increasing temperatures” value in series [2] (80° C., Table 16) came to 75; in series [2] (80° C., Table 22) it was 75; in series [2] (80° C., Table 36) it was 75; in series [2] (90° C., Table 16) it was 66; in series [2] (90° C., Table 22), 66; in series [2] (90° C., Table 36), 66. Further, the “Concentration after heating at increasing temperatures” value in series [2] (RT, Table 16) turned out to be 100; in series [2] (RT, Table 22) it was 100. Besides, in the series with vWF [3], the “cross-reactivity with human vWF” value was “cross-reactive”. The “cross-reactivity with cynomologues monkey vWF” value in the series with cynomologues monkey vWF is recorded as “cross-reactive”. The “cross-reactivity with baboon vWF” value in the series on baboon vWF is “cross-reactive”. Besides, the Kd was 3.98 nM in the series with vWF [4] (setting [5]); 2.7 nM in the series with vWF [4] (real KD value, range of nanobody concentrations, Table 14); 1.6 nM in the series with vWF [4] (wild type and humanised 12A5 nanobodies, Table 37). Further, the Koff in the series with vWF [4] (setting [5]) was 0.00251 s⁻¹; with vWF [4] (setting [6]) it was 0.0033 s⁻¹. The Kon was 629000 M⁻¹ s⁻¹ with vWF [4] (setting [5]) and 1.22e+06 M⁻¹ s⁻¹ with vWF [4] (setting [6]). In addition, the “K-on and K-off rates compared among homologue nanobodies” value with vWF [4] was “best K-on and K-off rates”.

B2: 12D8: 12A5 homologue nanobody, SEQ ID NO: 70 (protein)
VHH: B1 VHH with A33T, M36L, P62S, P74A, K86R, S103D
In the case of B2, in the series with vWF [4] (setting [5]), the Koff was 0.00584 s⁻¹ and the Kon is 139000 M⁻¹ s⁻¹.

B3: 12E8: 12A5 homologue nanobody, SEQ ID NO: 68 (protein)
VHH: B1 VHH with V5E, M36L, P62S, P74A, S103D
Turning to B3, in the series with vWF [4] (setting [5]), the Koff was 0.00293 s⁻¹ and the Kon is 171000 M⁻¹ s⁻¹.

B4: 12A6: 12A5 homologue nanobody, SEQ ID NO: 69 (protein)
VHH: B1 VHH with A1Q, A33T, M36L, P62S, P74A, K86R, S103D
For the molecule B4, in the series with vWF [4] (setting [5]), the Koff is 0.00472 s⁻¹ and the Kon was 188000 M⁻¹ s⁻¹.

B5: 12B4: 12A5 homologue nanobody, SEQ ID NO: 67 (protein)
VHH: B1 VHH with A1Q, M36L, P62S
In the case of B5, in the series with vWF [4] (setting [5]), the Koff was 0.0022 s⁻¹ and the Kon was 544000 M⁻¹ s⁻¹. The “K-on and K-off rates compared among homologue nanobodies” value with vWF [4] was “best K-on and K-off rates”.

B6: 12A2: 12B6 homologue nanobody, SEQ ID NO: 71 (protein)
VHH: QVKLEESGGGLVQAGGALRLSCAASGRTFSYNPMGWFRQAPGKERDLVAAISRTGGSTYYPDSVEGRFTISRDNAKRMVYLQMNNLKPEDTAVYYCAAAGVRAEDGRVRTLPSEYTFWGQGTQVTVSS
In the case of B6, the “stability at elevated temperatures (binding to vWF in ELISA after heating)” value with vWF [1] is listed as “very stable at elevated temperatures”. Also, the “Concentration after heating at increasing temperatures” value in series [2] (37° C., Table 16) is listed as 106; in series [2] (37° C., Table 21), 106; in series [2] (37° C., percentage of the concentration at room temperature, Table 30), 106%; in series [2] (50° C., Table 16), 104; in series [2] (50° C., Table 21), 104; in series [2] (50° C., percentage of the concentration at room temperature, Table 30), 104%. For the same molecule, the “Concentration after heating at increasing temperatures” value in series [2] (60° C., Table 16) is 100; in series [2] (60° C., Table 21), 100; in series [2] (60° C., percentage of the concentration at room temperature, Table 30), 100%; in series [2] (70° C., Table 16) it was 93; in series [2] (70° C., Table 21), 93; in series [2] (70° C., percentage of the concentration at room temperature, Table 30), 93%. Besides, the “Concentration after heating at increasing temperatures” value in series [2] (80° C., Table 16) was determined as 87; in series [2] (80° C., Table 21), 87; in series [2] (80° C., percentage of the concentration at room temperature, Table 30), 87%; in series [2] (90° C., Table 16), 90; in series [2] (90° C., Table 21), 90; in series [2] (90° C., percentage of the concentration at room temperature, Table 30), 90%. In addition, the “Concentration after heating at increasing temperatures” value in series [2] (RT, Table 16) is 100; in series [2] (RT, Table 21), 100; in series [2] (RT, OD280 nm concentration of supernatant as percentage of the concentration at room temperature, Table 30) it was 100%. In addition, the “cross-reactivity with human vWF” value in the series with vWF [3] was “cross-reactive”. Also, in the series on cynomologues monkey vWF, the “cross-reactivity with cynomologues monkey vWF” value is “cross-reactive”. Further, in the series with baboon vWF, the “cross-reactivity with baboon vWF” value is given as “cross-reactive”. In addition, the “cross-reactivity with pig vWF” value in the series with pig vWF is listed as “cross-reactive”. Also, the Koff in the series with vWF [4] (estimated value, Table 13) is 0.00349 s⁻¹; with vWF [4] (setting [6]), 0.0099 s⁻¹. Moreover, the Kon with vWF [4] (estimated value, Table 13) was 1.11e+06 M⁻¹ s⁻¹; with vWF [4] (setting [6]), 2.24e+06 M⁻¹ s⁻¹. Also, in the series with vWF [4], the “K-on and K-off rates compared among homologue nanobodies” value was “best K-on rate”.
